Experimental data reported in patent publication US12310933B2, “Treatment of demyelinating disorders” (The University of Chicago, priority 2013, dated 2025).

Key:
[1] = tested on: mice immunized with MOG35-55-specific EAE; assay: Inflammatory ear-swelling response to local injection of MOG35-55 in EAE mice; type: in vivo, mouse; conditions: 8 mg/kg daily IP PID 7 to PID 19; MOG35-55 challenge PID 17, read 48 hours later
Experimental: Example 9: guanabenz reduces inflammatory immune responses to myelin proteins in an in vivo mouse model of EAE (FIG. 10). Mice immunized with MOG35-55-specific EAE (as described herein) were treated with vehicle or 8 mg/kg guanabenz daily IP from PID 7 to PID 19. On PID 17, mice were challenged via a single injection of 10 μg of MOG35-55 peptide solubilized in 10 μl of 1×PBS in the dorsal surface of the left ear and 10 μg of PLP178-191 peptide in 10 μl 1×PBS in the right ear. Response was assessed 48 hours later by measuring ear thickness. […] N=8-9/group. (**p<0.005, ***p<0.0005)

[2] = mouse, in vivo, ip
Experimental: Mice were then given a final injection before serum was collected 2, 4, or 12 hours later via submandibular bleed. Immediately following blood draw, mice were perfused with 0.9% NaCl and their brains collected and weighed. […] Data represents mean±SD. FIG. 9 depicts the same data, with brain and serum concentrations expressed as μM values. […] Data represents mean±SD.

[3] = tested on: differentiating rat oligodendrocyte precursor cells (drOPCs); assay: FDA/PI (fluorescein-diacetate/propidium iodide) live/dead cell viability assay, IFN-γ challenge; type: cell-based; conditions: 5.0 μM guanabenz + 200 U/ml IFN-γ, 48 hours
From the text: Example 1: guanabenz protects differentiating rat oligodendrocyte precursor cells (drOPCs) against interferon-γ induced cell death (FIG. 2A). Interferon-γ is an inflammatory cytokine that is thought to contribute to multiple sclerosis exacerbations, therefore, treatment of cultured cells of the oligodendrocyte lineage with interferon-γ provides a useful cellular model of MS-related inflammation. drOPCs were isolated and purified to >95% homogeneity from 6-7 day old Sprague-Dawley rat cortices by immunopanning as previously described (Chan et al. 2004 Neuron 43:2; 183-191). Briefly, rat cortices were extracted, diced, and digested with papain at 37° C. Cells were then triturated and resuspended in panning buffer containing insulin, then sequentially immunopanned at room temperature on three plates containing Ran-2, GalC, and O4 antibodies from hybridomal supernatant. […] Following 48 hours of treatment, media was removed and the cells were incubated in FDA/PI (fluorescein-diacetate/propidium iodide) for 3 minutes, rinsed with 1×PBS, and imaged for live/dead cell quantification. In living cells, non-fluorescent FDA is converted into fluorescein, giving off a bright green fluorescence. […] FIG. 2B illustrates the quantitation of the experiment in FIG. 2a. […]

## N=C(N)N/N=C/c1c(Cl)cccc1Cl [guanabenz]
[1]
  mean ear swelling relative to vehicle-administered subjects: about one-third
[2]
  clearance from serum and brain: quickly cleared in both serum and brain
[3]
  cell viability (green/red cell ratio, FDA/PI): increased the green/red cell ratio back to control levels
